Test [1] concerns IL10 release from human monocyte derived macrophages stimulated with LPS. Put plainly: SIK macrophage cytokine assay, increase of IL10 release. The class given is cell-based. As to conditions: read-out: IL10 EC50, 1 ng/mL LPS, 4 hours, HTRF. A general note: TR-FRET usually uses a lanthanide donor and a delayed reading to cut background.
The subject of test [2] is TNFα release from human monocyte derived macrophages stimulated with LPS. Put plainly: SIK macrophage cytokine assay, inhibition of TNFα release. The class given is cell-based. As to conditions: read-out: TNFa IC50, 1 ng/mL LPS, 4 hours, HTRF.
A further test has as its target SIK3 (Homo sapiens (Human), UniProt Q9Y2K2). Briefly: Pan SIK MS IC50 enzyme assay (SIK3). As to conditions: read-out: SIK3 IC50 IC50; 1 mM ATP, substrate peptide AQT0508, LCMS/MS detection. The class given is biochemical.
Another test addresses SIK2 (Homo sapiens (Human), UniProt Q9H0K1). Put plainly: Pan SIK MS IC50 enzyme assay (SIK2). The class given is biochemical. The conditions noted are these: read-out: SIK2 IC50 IC50; 1 mM ATP, substrate peptide AQT0252, LCMS/MS detection.
Another test deals with SIK1 (Homo sapiens (Human), UniProt P57059). Put plainly: Pan SIK MS IC50 enzyme assay (SIK1). As to conditions: read-out: SIK1 IC50 IC50; 1 mM ATP, substrate peptide AQT0868, LCMS/MS detection.

Protein sequences, listed by entry. Tags and fused reporters are not part of them.
UniProt Q9Y2K2, whole entry: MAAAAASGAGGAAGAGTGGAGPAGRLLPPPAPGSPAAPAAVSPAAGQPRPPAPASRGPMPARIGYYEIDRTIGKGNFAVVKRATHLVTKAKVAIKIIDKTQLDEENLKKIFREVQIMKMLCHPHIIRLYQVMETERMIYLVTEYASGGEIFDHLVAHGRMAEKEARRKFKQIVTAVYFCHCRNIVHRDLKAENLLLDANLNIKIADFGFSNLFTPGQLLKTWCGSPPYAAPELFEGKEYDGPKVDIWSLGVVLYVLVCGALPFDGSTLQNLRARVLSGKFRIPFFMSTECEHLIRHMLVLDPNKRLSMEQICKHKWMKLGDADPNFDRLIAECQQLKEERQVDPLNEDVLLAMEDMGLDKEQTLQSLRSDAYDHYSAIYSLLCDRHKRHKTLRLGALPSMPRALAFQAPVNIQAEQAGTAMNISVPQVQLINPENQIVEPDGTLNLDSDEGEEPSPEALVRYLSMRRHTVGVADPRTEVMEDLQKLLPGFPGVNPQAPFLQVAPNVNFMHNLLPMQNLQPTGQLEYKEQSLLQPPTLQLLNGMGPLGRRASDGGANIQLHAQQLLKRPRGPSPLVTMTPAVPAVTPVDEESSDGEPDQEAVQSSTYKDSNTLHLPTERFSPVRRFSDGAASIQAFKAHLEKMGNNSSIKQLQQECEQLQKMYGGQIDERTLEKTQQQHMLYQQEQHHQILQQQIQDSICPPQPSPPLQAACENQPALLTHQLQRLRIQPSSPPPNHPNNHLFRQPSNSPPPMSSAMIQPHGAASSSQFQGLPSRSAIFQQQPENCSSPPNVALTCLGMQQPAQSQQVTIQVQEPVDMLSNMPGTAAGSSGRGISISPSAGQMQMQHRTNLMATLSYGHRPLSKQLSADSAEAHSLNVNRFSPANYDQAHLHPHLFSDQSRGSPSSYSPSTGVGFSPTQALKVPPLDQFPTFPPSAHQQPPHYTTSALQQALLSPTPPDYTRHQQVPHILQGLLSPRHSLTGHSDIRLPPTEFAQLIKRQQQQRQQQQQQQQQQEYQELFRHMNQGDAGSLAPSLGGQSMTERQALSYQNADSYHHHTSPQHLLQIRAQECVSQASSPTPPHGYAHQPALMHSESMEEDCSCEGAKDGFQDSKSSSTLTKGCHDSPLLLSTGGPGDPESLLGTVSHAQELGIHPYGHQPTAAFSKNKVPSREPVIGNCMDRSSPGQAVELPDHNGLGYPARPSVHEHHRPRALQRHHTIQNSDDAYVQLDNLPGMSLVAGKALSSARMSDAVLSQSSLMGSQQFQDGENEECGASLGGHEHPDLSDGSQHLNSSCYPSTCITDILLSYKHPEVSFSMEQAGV
UniProt Q9H0K1, whole entry: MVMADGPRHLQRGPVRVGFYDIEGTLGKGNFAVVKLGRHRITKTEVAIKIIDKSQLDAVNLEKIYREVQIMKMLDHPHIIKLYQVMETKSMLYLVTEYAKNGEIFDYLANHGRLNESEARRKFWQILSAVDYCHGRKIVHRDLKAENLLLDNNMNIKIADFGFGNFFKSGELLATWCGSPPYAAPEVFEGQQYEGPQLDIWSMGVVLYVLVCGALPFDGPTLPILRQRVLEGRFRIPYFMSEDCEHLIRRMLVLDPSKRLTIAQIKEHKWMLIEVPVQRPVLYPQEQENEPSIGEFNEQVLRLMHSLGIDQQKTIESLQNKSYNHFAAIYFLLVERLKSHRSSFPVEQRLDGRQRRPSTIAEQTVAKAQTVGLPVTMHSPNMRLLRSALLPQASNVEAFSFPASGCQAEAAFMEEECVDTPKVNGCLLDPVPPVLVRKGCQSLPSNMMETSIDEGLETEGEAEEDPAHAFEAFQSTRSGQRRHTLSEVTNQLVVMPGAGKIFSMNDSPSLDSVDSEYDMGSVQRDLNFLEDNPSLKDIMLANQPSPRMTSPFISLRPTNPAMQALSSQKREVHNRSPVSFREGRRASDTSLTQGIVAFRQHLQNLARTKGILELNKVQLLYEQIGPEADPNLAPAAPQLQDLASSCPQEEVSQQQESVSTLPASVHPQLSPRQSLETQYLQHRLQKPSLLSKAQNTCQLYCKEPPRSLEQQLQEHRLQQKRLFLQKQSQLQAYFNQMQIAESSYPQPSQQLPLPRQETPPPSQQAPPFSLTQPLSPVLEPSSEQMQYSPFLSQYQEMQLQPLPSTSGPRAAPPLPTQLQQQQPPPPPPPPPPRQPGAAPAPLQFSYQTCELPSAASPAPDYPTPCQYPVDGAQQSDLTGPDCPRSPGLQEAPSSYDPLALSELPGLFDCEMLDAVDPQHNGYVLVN
UniProt P57059, whole entry: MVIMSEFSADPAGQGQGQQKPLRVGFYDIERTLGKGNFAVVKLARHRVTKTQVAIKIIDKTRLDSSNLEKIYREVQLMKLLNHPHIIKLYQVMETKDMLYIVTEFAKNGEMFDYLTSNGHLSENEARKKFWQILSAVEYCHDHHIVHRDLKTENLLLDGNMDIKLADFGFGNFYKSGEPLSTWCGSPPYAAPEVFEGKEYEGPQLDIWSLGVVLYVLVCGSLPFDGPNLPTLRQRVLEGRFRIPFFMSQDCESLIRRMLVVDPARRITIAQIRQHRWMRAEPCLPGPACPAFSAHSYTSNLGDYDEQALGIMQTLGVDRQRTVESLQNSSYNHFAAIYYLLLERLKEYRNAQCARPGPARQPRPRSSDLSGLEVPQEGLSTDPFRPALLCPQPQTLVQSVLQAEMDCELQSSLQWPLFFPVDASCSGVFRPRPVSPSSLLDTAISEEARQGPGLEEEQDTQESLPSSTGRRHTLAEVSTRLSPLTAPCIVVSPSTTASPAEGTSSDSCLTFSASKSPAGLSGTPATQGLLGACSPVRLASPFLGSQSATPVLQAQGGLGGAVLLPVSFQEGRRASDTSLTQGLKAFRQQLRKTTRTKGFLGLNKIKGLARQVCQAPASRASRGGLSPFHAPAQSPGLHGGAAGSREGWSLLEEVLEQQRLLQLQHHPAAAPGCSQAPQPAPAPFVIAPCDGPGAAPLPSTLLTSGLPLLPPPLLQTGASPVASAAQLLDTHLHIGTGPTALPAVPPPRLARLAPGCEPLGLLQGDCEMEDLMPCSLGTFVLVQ

With `CC[C@@H]1CCC[C@@](N)(COc2cc(-c3cnc4cccc(OC)n34)cc(OC)c2C#N)C1` (single isomer, unassigned), the EC50 in test [1] stood at 221 nM. For the same molecule, the IC50 in test [2] was found to be 118 nM.
For `CC[C@@H]1CCC[C@@]1(N)COc1cc(-c2cnc3cccc(C#N)n23)cc(SC)c1C#N` (single isomer, unassigned), in test [1], the EC50 turned out to be 66 nM. The IC50 in test [2] turned out to be 22.7 nM.
As to `CC[C@@H]1CCC[C@@]1(N)COc1cc(-c2cnc3cccc(OC)n23)cc(OC)c1C#N` (single isomer, unassigned), the EC50 in test [1] is 64 nM. In addition, the IC50 in test [2] came out at 15.1 nM.
Taken in the same sequence, the figures for `CC[C@@H]1CCC[C@@]1(N)COc1cc(-c2cnc3cccc(OC)n23)cc(SC)c1C#N` (single isomer, unassigned) were 88 nM and 67.3 nM.
Take `CC[C@@H]1CCC[C@](N)(COc2cc(-c3cnc4cccc(C#N)n34)cc(SC)c2C#N)C1` (single isomer, unassigned): the EC50 in test [1] was found to be 2 nM. Also, the IC50 in test [2] is 0.5 nM.
As for `CC[C@@H]1CC[C@@](N)(COc2cc(-c3cnc4cccc(OC)n34)cc(OC)c2C#N)C1` (single isomer, unassigned), the EC50 in test [1] was 328 nM. Besides, the IC50 in test [2] was 160 nM.
For `CC[C@@H]1CC[C@](N)(COc2cc(-c3cnc4cccc(OC)n34)cc(OC)c2C#N)C1` (single isomer, unassigned), in test [1], the EC50 was 30 nM. Besides, in test [2], the IC50 was determined as 12.2 nM.
As for `CC[C@@H]1OCC[C@@]1(N)COc1cc(-c2cnc3cccc(OC)n23)cc(SC)c1C#N` (single isomer, unassigned), in test [1], the EC50 was 19 nM. Moreover, the IC50 in test [2] worked out at 3.6 nM.
As to `CC[C@@H]1OCC[C@]1(N)COc1cc(-c2cnc3cccc(OC)n23)cc(SC)c1C#N` (single isomer, unassigned), in test [1], the EC50 was found to be 1470 nM. Besides, in test [2], the IC50 turned out to be 559 nM.
Consider `CC[C@H]1CCC[C@@](N)(COc2cc(-c3cnc4cccc(C#N)n34)cc(SC)c2C#N)C1` (single isomer, unassigned), for which the EC50 in test [1] was 49 nM. In test [2], the IC50 came out at 18.7 nM.
In the case of `CC[C@H]1CCC[C@@]1(N)COc1cc(-c2cnc3cccc(OC)n23)cc(OC)c1C#N` (single isomer, unassigned), in test [1], the EC50 was 1210 nM. In test [2], the IC50 was 707 nM.
Turning to `CC[C@H]1CCC[C@@]1(N)COc1cc(-c2cnc3cccc(OC)n23)cc(SC)c1C#N` (single isomer, unassigned), the EC50 in test [1] amounted to 9 nM. Besides, the IC50 in test [2] turned out to be 1.7 nM.
Turning to `CC[C@H]1CCC[C@](N)(COc2cc(-c3cnc4cccc(OC)n34)cc(OC)c2C#N)C1` (single isomer, unassigned), in test [1], the EC50 is 12 nM. The IC50 in test [2] came out at 2.5 nM.
With `CC[C@H]1CCC[C@]1(N)COc1cc(-c2cnc3cccc(C#N)n23)cc(SC)c1C#N` (single isomer, unassigned), in test [1], the EC50 was found to be 2 nM. In addition, the IC50 in test [2] was 0.5 nM.
Regarding `CC[C@H]1CC[C@@](N)(COc2cc(-c3cnc4cccc(OC)n34)cc(OC)c2C#N)C1` (single isomer, unassigned), in test [1], the EC50 was determined as 387 nM. Further, in test [2], the IC50 stood at 225 nM.
As for `CC[C@H]1CC[C@](N)(COc2cc(-c3cnc4cccc(OC)n34)cc(OC)c2C#N)C1` (single isomer, unassigned), the EC50 in test [1] was found to be 118 nM. Further, the IC50 in test [2] worked out at 54.6 nM.
In the case of `CC[C@H]1OCC[C@@]1(N)COc1cc(-c2cnc3cccc(OC)n23)cc(SC)c1C#N` (single isomer, unassigned), the EC50 in test [1] is 39 nM. Besides, the IC50 in test [2] turned out to be 6.3 nM.
Regarding `CC[C@H]1OCC[C@]1(N)COc1cc(-c2cnc3cccc(OC)n23)cc(SC)c1C#N` (single isomer, unassigned), the EC50 in test [1] was found to be 715 nM. For the same molecule, the IC50 in test [2] is 346 nM.
Take `COc1cc(-c2cnc3cccc(OC)n23)cc(OCC2(N)CCCN(CC(F)(F)F)C2)c1C#N` (single isomer, unassigned): the IC50 at SIK3 stood at 13.7 nM; at SIK2, 6.2 nM; in test [2], 102 nM; on SIK1, 5.2 nM. Also, the EC50 in test [1] was 257 nM.
As for `COc1cc(-c2cnc3cccc(OC)n23)cc(OC[C@@]2(N)CCC[C@@H]2CC2CC2)c1C#N` (single isomer, unassigned), the EC50 in test [1] was 598 nM. Further, in test [2], the IC50 worked out at 287 nM.
On to `COc1cc(-c2cnc3cccc(OC)n23)cc(OC[C@@]2(N)CCC[C@H]2CC2CC2)c1C#N` (single isomer, unassigned), for which the EC50 in test [1] worked out at 21 nM. Also, in test [2], the IC50 is 4.9 nM.
Regarding `COc1cc(-c2cnc3cccc(OC)n23)cc(OC[C@]2(N)CCC[C@@H]2CC2CC2)c1C#N` (single isomer, unassigned), in test [1], the EC50 stood at 34 nM. In addition, in test [2], the IC50 is 11.4 nM.
Taken in the same sequence, the figures for `COc1cc(-c2cnc3cccc(OC)n23)cc(OC[C@]2(N)CCC[C@H]2CC2CC2)c1C#N` (single isomer, unassigned) were 966 nM and 535 nM.
Consider `COc1cccc2ncc(-c3cc(OCC4(N)CCC(F)(F)C4)c(C#N)c(SC)c3)n12` (single isomer, unassigned) [13A], for which the EC50 in test [1] amounted to 332 nM. Further, in test [2], the IC50 stood at 171 nM.
The matching figures for `COc1cccc2ncc(-c3cc(OCC4(N)CCC(F)(F)C4)c(C#N)c(SC)c3)n12` (single isomer, unassigned) [13B]: 54 nM and 24.4 nM.
The matching figures for `CSc1cc(-c2cnc3cccc(C#N)n23)cc(OCC2(N)CCCC(C)(C)C2)c1C#N` (single isomer, unassigned) [15A]: 68 nM and 36.5 nM.
With `CSc1cc(-c2cnc3cccc(C#N)n23)cc(OCC2(N)CCCC(C)(C)C2)c1C#N` (single isomer, unassigned) [15B], the EC50 in test [1] was 18 nM. In addition, the IC50 in test [2] came to 4.4 nM.
Taken in the same sequence, the figures for `COc1cc(-c2cnc3cccc(OC)n23)cc(OCC2(N)CCCC23CCCC3)c1C#N` (single isomer, unassigned) [20A] were 825 nM and 865 nM.
The matching figures for `COc1cc(-c2cnc3cccc(OC)n23)cc(OCC2(N)CCCC23CCCC3)c1C#N` (single isomer, unassigned) [20B]: 33 nM and 13.8 nM.
Consider `CSc1cc(-c2cnc3ccccn23)cc(OCC2(N)CCSC2)c1C#N` (single isomer, unassigned) [23A], for which the EC50 in test [1] amounted to 799 nM. The IC50 in test [2] was 128 nM.
Taken in the same sequence, the figures for `CSc1cc(-c2cnc3ccccn23)cc(OCC2(N)CCSC2)c1C#N` (single isomer, unassigned) [23B] were 89 nM and 19.8 nM.
`COc1cccc2ncc(-c3cc(OCC4(N)CCOC4)c(C#N)c(SC)c3)n12` (single isomer, unassigned) [24A]: in test [1], the EC50 was found to be 135 nM. In addition, in test [2], the IC50 is 28.9 nM.
For `COc1cccc2ncc(-c3cc(OCC4(N)CCOC4)c(C#N)c(SC)c3)n12` (single isomer, unassigned) [24B], in test [1], the EC50 was determined as 609 nM. Moreover, the IC50 in test [2] stood at 193 nM.
Turning to `CSc1cc(-c2cnc3ccccn23)cc(OCC2(N)CCC(F)(F)C2)c1C#N` (single isomer, unassigned) [26A], the EC50 in test [1] turned out to be 66 nM. Moreover, the IC50 in test [2] was 20 nM.
For the molecule `CSc1cc(-c2cnc3ccccn23)cc(OCC2(N)CCC(F)(F)C2)c1C#N` (single isomer, unassigned) [26B], the EC50 in test [1] came to 692 nM. In test [2], the IC50 is 369 nM.
For `CSc1cc(-c2cnc3cccc(C#N)n23)cc(OCC2(N)CCSC2)c1C#N` (single isomer, unassigned) [28A], the EC50 in test [1] worked out at 14 nM. For the same molecule, the IC50 in test [2] came out at 22.7 nM.
In the case of `CSc1cc(-c2cnc3cccc(C#N)n23)cc(OCC2(N)CCSC2)c1C#N` (single isomer, unassigned) [28B], the EC50 in test [1] stood at 208 nM. Besides, the IC50 in test [2] amounted to 32.5 nM.
On to `COc1cccc2ncc(-c3cc(OCC4(N)CCSC4)c(C#N)c(SC)c3)n12` (single isomer, unassigned) [30A], for which the IC50 on SIK3 was 35.2 nM; on SIK2, 9.6 nM; in test [2], 122 nM; on SIK1, 7.8 nM. In test [1], the EC50 turned out to be 484 nM.
On to `COc1cccc2ncc(-c3cc(OCC4(N)CCSC4)c(C#N)c(SC)c3)n12` (single isomer, unassigned) [30B], for which the IC50 at SIK3 is 5.2 nM; on SIK2 it was 2.2 nM; in test [2] it was 23.7 nM; on SIK1, 1.2 nM. Moreover, the EC50 in test [1] turned out to be 78 nM.

The record behind these values is patent US20240124450A1, “Novel SIK Inhibitors” (Pfizer Inc., priority 2022, published 2024).
